Structures are written as SMILES.

The results in this text go back to patent US20230338454A1, “FORSYTHIA SUSPENSA COMPONENT AND OPTIONAL PANAX GINSENG COMPONENT AND THE APPLICATION” (priority 2020, published 2023).

The subject of this series is Vero cells. The series can be described thus: Cytotoxicity test of drugs on Vero cells (MTT). Particulars: 72 h.

Turning to `NC(=O)c1ncn([C@@H]2O[C@H](CO)[C@@H](O)[C@H]2O)n1` [Ribavirin, reference compound], the “Maximum non-toxic concentration (TC0)” value was 0.065 g/L.
